Among the data in patent publication US20240248078A1, “Compositions For and Methods of Evaluating Gap Junction Formation and Function” (Duke University, priority 2021, published 2024) are z (test statistic of the FETCH score against the negative distribution) values, retold here.

The assay deals with Cx36-FP (human). The experiment in a line: heterotypic FETCH flow cytometry, n=5. For orientation: A flow cytometer gives signals particle by particle.

In turn, Cx26-FP returned a z (test statistic of the FETCH score against the negative distribution) of 9.03.
